From patent US11345694B2, “Antibacterial compounds” (DISCUVA LTD., priority 2017, dated 2022)

Tests used:
Experiment in all cases: MIC broth microdilution
[1] = system: K. pneumoniae H151440671 (KP10); format: cell-based, Klebsiella pneumoniae
Protocol: (§1) Minimum Inhibitory Concentrations (MICs) versus planktonic bacteria are determined by the broth microdilution procedure according to the guidelines of the Clinical and Laboratory Standards Institute (Clinical and Laboratory Standards Institute. Methods for Dilution Antimicrobial Susceptibility Tests for Bacteria That Grow Aerobically; Approved Standard-tenth Edition. CLSI document M07-A10, 2015). The broth dilution method involves a two-fold serial dilution of compounds in 96-well microtitre plates, giving a final concentration range of 0.39-200 μM and a maximum final concentration of 2% DMSO. The bacterial strains tested include Escherichia coli K12 (EC), E. coli NCTC 13441 (UPEC), Staphylococcus aureus ATCC 35556 (SA), Acinetobacter baumannii ATCC 17978 (AB), Pseudomonas aeruginosa ATCC 33359 (PA), Enterobacter cloacae DSM 30054 (Ed), Serratia marcescens SL1344 (Sm), Salmonella typhimurium XNAA5 (St), Klebsiella pneumoniae ATCC 10031 (KP2), K. pneumoniae NCTC 13438 (KP1), K. pneumoniae ATCC 700603 (KP3), Klebsiella pneumoniae ATCC 51504 (KP4), K. pneumoniae H154680676 (KP5), K. pneumoniae H154020667 (KP6), K. pneumoniae H154640784 (KP7), K. pneumoniae H154600588 (KP8), K. pneumoniae H154300688 (KP9), K. pneumoniae H151440671 (KP10). Strains are grown in cation-adjusted Müller-Hinton broth or on Luria Bertoni agar at 37° C. in an ambient atmosphere. The MIC is determined as the lowest concentration of compound that inhibits growth following a 20-24 hour incubation period.

[2] = system: K. pneumoniae H154300688 (KP9); format: cell-based, Klebsiella pneumoniae
Protocol: as §1

[3] = system: K. pneumoniae NCTC 13438 (KP1); format: cell-based, Klebsiella pneumoniae
Protocol: as §1

[4] = system: K. pneumoniae ATCC 700603 (KP3); format: cell-based, Klebsiella pneumoniae
Protocol: as §1

[5] = system: K. pneumoniae H154640784 (KP7); format: cell-based, Klebsiella pneumoniae
Protocol: as §1

[6] = system: K. pneumoniae H154020667 (KP6); format: cell-based, Klebsiella pneumoniae
Protocol: as §1

[7] = system: K. pneumoniae H154600588 (KP8); format: cell-based, Klebsiella pneumoniae
Protocol: as §1

[8] = system: K. pneumoniae H154680676 (KP5); format: cell-based, Klebsiella pneumoniae
Protocol: as §1

[9] = system: Klebsiella pneumoniae ATCC 10031 (KP2); format: cell-based
Protocol: as §1, with “Strains are grown in cation-adjusted Müller-Hinton broth or on Luria Bertoni agar at 37° C. in an ambient atmosphere.” left out

NC[C@H]1O[C@H](O[C@H]2[C@H](O)[C@@H](O[C@H]3O[C@H](CO)[C@@H](O)[C@H](N)[C@H]3O)[C@H](N)C[C@@H]2N)[C@H](N)C[C@@H]1O [TOB]
MIC KP10 [1]: B (a MIC of from 1 to 10 is assigned the letter B) | MIC KP9 [2]: D (a MIC of over 100 is assigned the letter D) | MIC KP1 [3]: C (a MIC of from 10 to 100 is assigned the letter C) | MIC KP3 [4]: D (a MIC of over 100 is assigned the letter D) | MIC KP7 [5]: B (a MIC of from 1 to 10 is assigned the letter B) | MIC KP6 [6]: D (a MIC of over 100 is assigned the letter D) | MIC KP8 [7]: D (a MIC of over 100 is assigned the letter D) | MIC KP5 [8]: D (a MIC of over 100 is assigned the letter D) | MIC KP2 [9]: B (a MIC of from 1 to 10 is assigned the letter B)
